Consider two compounds from ChEMBL document CHEMBL1153304, “2,4-Diaminopyridine delta-opioid receptor agonists and their associated hERG pharmacology” (Bioorg Med Chem Lett, 2009).

Protein sequences, listed by entry. Tags and fused reporters are not part of them. Lines headed by an entry give the natural chain unless they say otherwise; changes in a name come on top.
UniProt Q12809: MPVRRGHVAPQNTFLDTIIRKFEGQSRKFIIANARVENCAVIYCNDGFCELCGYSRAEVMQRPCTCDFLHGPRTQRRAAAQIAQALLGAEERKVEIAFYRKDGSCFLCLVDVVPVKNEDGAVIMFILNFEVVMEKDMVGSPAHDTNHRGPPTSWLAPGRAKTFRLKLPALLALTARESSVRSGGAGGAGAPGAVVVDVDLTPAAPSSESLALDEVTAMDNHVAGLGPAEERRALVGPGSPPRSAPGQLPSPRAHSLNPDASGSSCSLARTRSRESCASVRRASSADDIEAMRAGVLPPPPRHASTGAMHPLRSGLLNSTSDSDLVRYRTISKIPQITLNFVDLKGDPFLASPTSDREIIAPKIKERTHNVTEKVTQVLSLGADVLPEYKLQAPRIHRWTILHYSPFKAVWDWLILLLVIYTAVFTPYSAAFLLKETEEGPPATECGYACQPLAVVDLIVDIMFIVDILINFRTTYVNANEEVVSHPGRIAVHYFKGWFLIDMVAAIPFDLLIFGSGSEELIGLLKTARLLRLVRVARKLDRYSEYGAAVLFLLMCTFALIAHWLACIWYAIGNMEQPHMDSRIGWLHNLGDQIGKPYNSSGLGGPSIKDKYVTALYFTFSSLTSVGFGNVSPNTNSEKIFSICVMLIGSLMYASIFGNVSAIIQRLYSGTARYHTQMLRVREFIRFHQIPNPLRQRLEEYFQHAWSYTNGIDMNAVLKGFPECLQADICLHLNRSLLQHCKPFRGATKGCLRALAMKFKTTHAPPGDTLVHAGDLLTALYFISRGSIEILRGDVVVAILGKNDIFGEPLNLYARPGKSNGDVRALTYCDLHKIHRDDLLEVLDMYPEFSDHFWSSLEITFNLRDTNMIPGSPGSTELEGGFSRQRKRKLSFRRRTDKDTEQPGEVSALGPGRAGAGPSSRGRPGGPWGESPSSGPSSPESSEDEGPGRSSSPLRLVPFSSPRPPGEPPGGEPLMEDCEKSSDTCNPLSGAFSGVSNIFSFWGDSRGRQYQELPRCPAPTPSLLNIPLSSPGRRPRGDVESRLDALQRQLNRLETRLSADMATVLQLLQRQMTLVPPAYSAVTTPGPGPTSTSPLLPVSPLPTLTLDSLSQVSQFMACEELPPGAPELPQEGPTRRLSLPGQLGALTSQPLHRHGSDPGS

pKi: −log10 of the molar value. Some results are limits rather than exact numbers.

The target in this test is Voltage-gated inwardly rectifying potassium channel KCNH2 (Homo sapiens, UniProt Q12809). In words: Inhibition of human ERG.

The term pKi denotes the Ki on a negative log10 scale, so that one unit is a factor of ten. In the case of `Nc1ccnc(N2CCC(NC(=O)[C@@H]3CCCO3)(c3ccccc3)CC2)c1`, the pKi is less than 5.00.
Compound `Nc1ccnc(N2CCC(N(C(=O)C3CCCCC3)c3ccccn3)CC2)c1` gave a pKi of less than 5.00.
